## Binding of CDR-mutated scFvs to a peptide of the spike HR2 region

The measurements come from Li et al. 2023 (doi:10.1038/s41467-023-39022-2) through the FLAb antibody collection.

All variants were tested on one target, the spike HR2 peptide PDVDLGDISGINAS (SARS-CoV-2).

Each scFv is VH, a (GGGGS)3 linker, VL, as in the parent Ab-14, and differs from it in the CDRs of the heavy chain only.
VH: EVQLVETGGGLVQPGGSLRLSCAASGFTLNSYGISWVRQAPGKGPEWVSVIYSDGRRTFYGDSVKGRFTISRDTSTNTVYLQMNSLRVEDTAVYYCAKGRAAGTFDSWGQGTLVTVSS
VL: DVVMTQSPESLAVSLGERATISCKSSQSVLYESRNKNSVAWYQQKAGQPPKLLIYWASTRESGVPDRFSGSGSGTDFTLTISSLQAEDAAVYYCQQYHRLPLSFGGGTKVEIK

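The starting antibody came from a phage panning campaign against this peptide. This is the validation round: designs drawn from the data on random variants, tested in the same kind of assay. Several design methods are mixed in this list. Affinity was read by AlphaSeq, a pooled yeast mating assay with surface-displayed partners. Pairs that bind mate more often; barcode pairs of the diploids are counted by sequencing. A regression on co-assayed BCL2-family reference pairs converts the normalised counts of each replicate to an apparent Kd. Each pool was mated in six replicate cultures.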

Substitutions are numbered in sequence along the VH above, starting at 1 (not Kabat).
Variants here have at most six changes.
Kd is apparent (estimated from mating counts) and averaged on the log scale over replicates with a signal. Smaller is tighter.
"nd" means that the variant was in the library but no mating with the target was seen in any replicate; the authors take this as a sign of poor binding, and no number exists.
The list is sorted by this average, lowest first, undetected variants last.

Variant T28D+S31E+S53A+G61A+R100N+A101I gave 220 pM (3 of 6 replicates).
Variant G26K+T28S+S31D+G61A+A101T gave 790 pM (6 of 6 replicates).
Variant S31E+R100K+A101T+S107T gave 1.2 nM (6 of 6 replicates).
Variant S53A+D106A gave 1.3 nM (6 of 6 replicates).
Variant T28N+S53A+A101Q gave 1.4 nM (6 of 6 replicates).
Variant T28N+F105Y+S107W gave 7.1 nM (1 of 6 replicates).
Variant G26K+T28S+S53A+S107V gave 8.6 nM (6 of 6 replicates).
Variant T28E+G61H+R100K gave 10 nM (6 of 6 replicates).
Variant S31Q+R56Q+G61I gave 15 nM (6 of 6 replicates).
Variant T28V+G61A+S63N+R100Q+A101T gave 20 nM (5 of 6 replicates).
Variant T28E+G61S+R100S gave 25 nM (6 of 6 replicates).
Variant N30E+G61S+A102G gave 30 nM (6 of 6 replicates).
Variant S53A+R100E+S107N gave 31 nM (6 of 6 replicates).
Variant F27T gave 33 nM (1 of 6 replicates).
Variant R100E+A101N+S107L gave 53 nM (6 of 6 replicates).
Variant N30D+A101I+S107R gave 70 nM (5 of 6 replicates).
Variant T28G+G61T+R100K gave 77 nM (6 of 6 replicates).
Variant T28Q+R100Q+S107D gave 200 nM (3 of 6 replicates).
Variant S31D+A101Q+D106K gave 4.4 µM (2 of 6 replicates).
Variant S31E+A101G+G103V+S107Q gave 7.1 µM (1 of 6 replicates).
Variant S53A+R100H+G103L+T104G gave nd (0 of 6 replicates).
Variant T28D+G61V+R100Q+S107L gave nd (0 of 6 replicates).
Variant T28H+N30A+T104R+S107I gave nd (0 of 6 replicates).
Variant T28D+R56M+G61S+A102M gave nd (0 of 6 replicates).
Variant A102M+G103S gave nd (0 of 6 replicates).
Variant T28D+G33C+T104W+D106N gave nd (0 of 6 replicates).
Variant A101V+T104S+D106T+S107T gave nd (0 of 6 replicates).
Variant I34V+K65R+G99T+A101C gave nd (0 of 6 replicates).
Variant F27H+N30D+A102K+T104A+D106M+S107T gave nd (0 of 6 replicates).
Variant R57T+T58Q+S107Y gave nd (0 of 6 replicates).
Variant A101T+A102K gave nd (0 of 6 replicates).
Variant S31E+G61T+G99R+A101F gave nd (0 of 6 replicates).

Top 3 of the variants detected in all replicates, tightest first:

The variant G26K+T28S+S31D+G61A+A101T showed 790 pM (6 of 6 replicates).
The variant S31E+R100K+A101T+S107T showed 1.2 nM (6 of 6 replicates).
The variant S53A+D106A showed 1.3 nM (6 of 6 replicates).

Values of this round are not directly comparable with the first-round values of the same sequences.
Three control strains display no target. For all heavy chain designs, 1% of the pairings with them gave a signal, with a median of 120 nM and one signal in twenty below 7.0 nM, so weak values seen in few replicates may be background.
In the paper, a design with two or fewer of six values counts as a poor binder.
The parent sequence was in this pool as ten entries: three were never detected, three once, and four in most replicates, with averages from 2.2 nM to 240 nM.